In US7279597B1, “Phenyl amine carboxylic acid compounds and compositions for delivering active agents” (Emisphere Technologies, Inc., priority 1999, dated 2007):

Key:
[1] = Insulin pulmonary delivery, serum insulin by ELISA; settings: rats, control group dosed insulin alone, insulin 0.03 mg/kg, 0.4 ml/kg
Procedure: (§1) The typical dosing and sampling protocols were as follows.
(§2) Serum insulin levels were determined with an Insulin ELISA Test Kit (Kit # DSL-10-1600 from Diagnostic Systems Laboratories, Inc., Webster, Tex.), modifying the standard protocol in order to optimize the sensitivity and linear range of the standard curve for the volumes and concentrations of the samples used in the present protocol. […] The five values for each time point were averaged and the results plotted as serum insulin concentration versus time.

[2] = Insulin oral delivery, serum human insulin by ELISA; settings: previous experiments
Procedure: The pH was adjusted to about 7 to 8.5 with NaOH or HCl. […] About 1.25 mg insulin from an insulin stock solution (15 mg/ml made from 0.5409 g insulin and 18 ml deionized water, adjusting with HCl and NaOH to pH 8.15 and to obtain a clear solution using 40 ml concentrated HCl, 25 ml 10N NaOH and 50 ml 1N NaOH) was added to the solution and mixed by inverting.
as §1, §2

Substance: human insulin
- Cmax (Control), serum insulin [1]: 5.46 μU/ml
- levels of human insulin following oral dosing with human insulin alone [2]: no measurable levels
